Columns and labels:
[1] = Ex vivo biodistribution in normal CFW mice; settings: for Biodistribution Blood / Biodistribution Bone / Biodistribution Brain / Biodistribution Heart / Biodistribution Intestine / Biodistribution Kidney / Biodistribution Liver / Biodistribution Lung / Biodistribution Muscle / Biodistribution Pancreas / Biodistribution Spleen / Biodistribution Stomach: i.v. tail vein
Method: For the ex vivo biodistribution studies, normal Carworth Farms White (CFW) mice of both genders were used. The mice were housed in individually ventilated cages (IVCs) under a constant temperature (22 ± 2 °C) and humidity (45–50%) and a 12 h light/dark cycle, with free access to food and water. The animals were obtained from the breeding facilities of the Institute of Biosciences and Applications, NCSR “Demokritos”. The experimental animal facility is registered according to Greek Presidential Decree 56/2013 (Reg. Number: EL 25 BIO 022), in accordance with European Directive 2010/63, which is harmonized with national legislation, on the protection of animals used for scientific purposes. All applicable national guidelines for the care and use of animals were followed. The study protocol was approved by the Department of Agriculture and Veterinary Service of the Prefecture of Athens (Protocol Number 634365/27-7-21). These studies have been further approved by our institutional ethics committee, and the procedures followed are in accordance with institutional guidelines. Intravenous injections were performed using insulin syringes BD Micro-Fine 1 mL (29G). The animals were euthanized in a chamber saturated with isofluorane vapors (isoflurane 1000 mg/g, Iso-Vet, Chanelle Pharma). The radioactivity of samples and syringes was measured using a dose calibrator (Capintec, Ramsey, NJ, USA), while a Cobra II automatic gamma counter (Canberra, Packard, Schwadorf, Austria), was used to measure the radioactivity of the samples from the ex vivo biodistribution studies.
The ex vivo behavior of the two radiolabeled complexes was evaluated in mixed-gender CFW mice, 6–8 weeks old, weighing 20–30 g. The radiotracers were intravenously injected via the tail vein (100 μL/~100 μCi). At 1 and 24 h post-administration, the animals were euthanized by isoflurane inhalation, and the major organs and tissues of interest (blood, liver, heart, kidneys, stomach, intestines, spleen, muscle, lung, bone, pancreas, and brain) were collected, weighed, and measured in an automatic gamma counter. For the calculation of the injected dose in each animal, a standard solution was prepared, while the radioactivity remaining in the tail was subtracted. The syringes containing the radiolabeled samples were measured before and after injection, to determine the precise dose administered to each mouse. All measurements were corrected for background and radioactive decay. All the distribution data were calculated as the percentage of injected dose per gram (%ID/g).

[2] = Lipophilicity, partition coefficient by shake-flask method (1-octanol/PBS); type: physicochemical; settings: 1-octanol/PBS pH 7.4, three repeats
Method: Lipophilicity studies were performed for the radiotracer [^99mTc]Tc-AGT-7. […] The partition coefficients (P) were determined using the shake-flask method and are expressed as logP (Table 1).
The lipophilicity of the radiolabeled complexes was assessed by determining the partition coefficient (P) using the shake-flask method. Briefly, in a centrifuge tube, 1 mL of 1-octanol and 1 mL PBS (0.01 M, pH 7.4) was mixed with 1–2 μCi of each of the radiolabeled complexes. The samples were vortexed for 1 min, and the radioactivity of 200 μL aliquots from each phase was measured using a gamma counter. The partition coefficient was calculated according to the following equation:(1) P = counts/mL on the 1 − octanol phase/counts/mL on the PBS phase
The results were expressed as logP. The procedure was repeated three times.

Which “myocardial accumulation (heart uptake)” value [1] does the source give for “Technetium-99m Tetrofosmin [[^99mTc]Tc-TF]” here?
Its value is over 20 % ID/g.

And the “Biodistribution Blood” value ([1]; 1 h post-injection)?
Its value is 0.74 %ID/g.

What about the “Biodistribution Bone” value ([1]; 1 h post-injection) of the same substance?
The value was 2.22 %ID/g.

And the “Biodistribution Brain” value ([1]; 1 h post-injection)?
Its value is 0.17 %ID/g.

And the “Biodistribution Heart” value ([1]; 1 h post-injection)?
The value was 21.20 %ID/g.

What about the “Biodistribution Intestine” value ([1]; 1 h post-injection) of the same substance?
Its value is 8.37 %ID/g.

What about the “Biodistribution Kidney” value ([1]; 1 h post-injection) of the same substance?
Its value is 32.94 %ID/g.

And the “Biodistribution Liver” value ([1]; 1 h post-injection)?
Its value is 10.20 %ID/g.

What about the “Biodistribution Lung” value ([1]; 1 h post-injection) of the same substance?
Its value is 1.36 %ID/g.

And the “Biodistribution Muscle” value ([1]; 1 h post-injection)?
The value was 2.46 %ID/g.

What about the “Biodistribution Pancreas” value ([1]; 1 h post-injection) of the same substance?
Its value is 4.37 %ID/g.

And the “Biodistribution Spleen” value ([1]; 1 h post-injection)?
The value was 1.39 %ID/g.

What about the “Biodistribution Stomach” value ([1]; 1 h post-injection) of the same substance?
The value was 5.39 %ID/g.

What about the “Biodistribution Blood” value ([1]; 24 h post-injection) of the same substance?
The value was 0.02 %ID/g.

And the “Biodistribution Bone” value ([1]; 24 h post-injection)?
The value was 0.20 %ID/g.

And the “Biodistribution Brain” value ([1]; 24 h post-injection)?
The value was 0.01 %ID/g.

And the “Biodistribution Heart” value ([1]; 24 h post-injection)?
Its value is 0.63 %ID/g.

And the “Biodistribution Intestine” value ([1]; 24 h post-injection)?
The value was 0.23 %ID/g.

What about the “Biodistribution Kidney” value ([1]; 24 h post-injection) of the same substance?
Its value is 0.54 %ID/g.

And the “Biodistribution Liver” value ([1]; 24 h post-injection)?
Its value is 0.27 %ID/g.

And the “Biodistribution Lung” value ([1]; 24 h post-injection)?
The value was 0.06 %ID/g.

And the “Biodistribution Muscle” value ([1]; 24 h post-injection)?
Its value is 0.50 %ID/g.

And the “Biodistribution Pancreas” value ([1]; 24 h post-injection)?
Its value is 0.35 %ID/g.

And the “Biodistribution Spleen” value ([1]; 24 h post-injection)?
The value was 0.06 %ID/g.

What about the “Biodistribution Stomach” value ([1]; 24 h post-injection) of the same substance?
The value was 0.11 %ID/g.

What about the “LogP Experimental” value [2] of the same substance?
Its value is 2.41 ± 1.03.

Reference: PMC12388980, “Development of AGT-7: An Innovative ^99mTc-Labeled Theranostic Platform for Glioblastoma Imaging and Therapy” (Pharmaceuticals, 2025)
